# Test results published in paper PMC7603314, “Broad-complex transcription factor mediates opposing hormonal regulation of two phylogenetically distant arginine kinase genes in Tribolium castaneum” (Communications Biology, 2020).
# By UniProt entry, the sequences of proteins in these tests, tags left out. Residues count along the entry.
# UniProt A0A2L1GIW8, 1-355: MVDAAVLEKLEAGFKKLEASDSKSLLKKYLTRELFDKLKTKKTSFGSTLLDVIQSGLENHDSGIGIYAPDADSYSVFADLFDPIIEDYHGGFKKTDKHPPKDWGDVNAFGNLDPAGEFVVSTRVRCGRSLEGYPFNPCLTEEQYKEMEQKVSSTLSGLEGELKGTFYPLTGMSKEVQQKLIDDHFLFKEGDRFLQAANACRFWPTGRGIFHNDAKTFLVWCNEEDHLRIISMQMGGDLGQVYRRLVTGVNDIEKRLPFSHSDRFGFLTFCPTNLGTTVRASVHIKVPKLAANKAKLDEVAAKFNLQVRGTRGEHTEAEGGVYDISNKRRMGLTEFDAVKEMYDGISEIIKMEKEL
# UniProt A0A2L1GIW2, 1-371: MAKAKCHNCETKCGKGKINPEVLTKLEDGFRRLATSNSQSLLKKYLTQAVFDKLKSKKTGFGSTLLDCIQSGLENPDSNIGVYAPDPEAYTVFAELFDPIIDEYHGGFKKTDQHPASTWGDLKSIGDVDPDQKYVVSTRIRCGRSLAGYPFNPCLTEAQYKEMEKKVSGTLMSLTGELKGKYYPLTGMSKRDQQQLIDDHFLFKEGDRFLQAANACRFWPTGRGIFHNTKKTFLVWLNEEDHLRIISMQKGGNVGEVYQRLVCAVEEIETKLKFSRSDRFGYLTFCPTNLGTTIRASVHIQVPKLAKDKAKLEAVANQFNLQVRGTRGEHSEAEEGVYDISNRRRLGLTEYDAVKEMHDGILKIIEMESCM
# Legend:
# TcAK1 = TcAK1 (Tribolium castaneum, UniProt A0A2L1GIW8); test: coupled hexokinase / glucose-6-phosphate dehydrogenase assay, […] nm, Lineweaver-Burk; settings: read-out: Km^p-Arg; reverse reaction; 5 mM ADP, 20 mM MgCl2, 50 mM Tris-HCl pH 7.5, 30 °C; phospho-L-arginine varied 0.05-5 mM (printed Km lies above this range)
# TcAK2 = TcAK2 (Tribolium castaneum, UniProt A0A2L1GIW2); test: as above; settings: read-out: Km^p-Arg; reverse reaction; 5 mM ADP, 20 mM MgCl2, 50 mM Tris-HCl pH 7.5, 30 °C; phospho-L-arginine varied 0.05-5 mM
structure (smiles),measurement,setting,value
N=C(NCCC[C@H](N)C(=O)O)NP(=O)(O)O,Km,TcAK1,14 mM
same,Km,TcAK2,1.4 mM
